Literature values as cited in paper PMC12412453 (Toxicology, 2021).

Key:
[1] = reported findings; ref References column of Table 1; cited from earlier work
[2] = reported findings; ref References column of Table 1; cited from earlier work; remark: listed apart in the source

COc1cc2c(c(OC)c1OC)-c1ccc(OC)c(=O)cc1[C@@H](NC(C)=O)CC2 [Colchicine]
Genotoxicity assay findings in vitro [1]: (+) for MN, CA, MLA; (−) for comet | Genotoxicity assay findings in vivo [2]: (+) for MN in BM and liver
